The record followed here is BindingDB's records for doi:10.1021/acschembio.6b00677 (Pfizer, 2016).

pIC50, pKi: −log10 of the molar value.

Assay [1] addresses T1, Tyrosine-protein kinase ITK/TSK (Homo sapiens, UniProt Q08881).
T1 sequence (Q08881 whole entry): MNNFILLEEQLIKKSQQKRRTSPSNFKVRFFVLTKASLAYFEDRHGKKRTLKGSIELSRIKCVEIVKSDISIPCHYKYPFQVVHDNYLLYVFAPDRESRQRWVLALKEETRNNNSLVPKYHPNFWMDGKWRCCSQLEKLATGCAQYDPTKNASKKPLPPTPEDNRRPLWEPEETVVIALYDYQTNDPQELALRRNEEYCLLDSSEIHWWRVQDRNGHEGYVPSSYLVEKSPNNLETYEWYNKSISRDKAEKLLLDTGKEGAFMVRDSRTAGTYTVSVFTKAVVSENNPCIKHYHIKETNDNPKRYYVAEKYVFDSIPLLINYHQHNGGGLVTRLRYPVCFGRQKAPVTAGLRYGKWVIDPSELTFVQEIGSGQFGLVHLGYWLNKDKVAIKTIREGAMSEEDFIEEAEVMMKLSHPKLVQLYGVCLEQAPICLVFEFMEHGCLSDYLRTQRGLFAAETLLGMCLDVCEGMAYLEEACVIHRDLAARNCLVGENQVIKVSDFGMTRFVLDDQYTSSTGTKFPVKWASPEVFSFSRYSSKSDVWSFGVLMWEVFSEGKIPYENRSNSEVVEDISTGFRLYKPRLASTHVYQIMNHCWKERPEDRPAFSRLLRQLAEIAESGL
The assay can be described thus: TR-FRET Competition Assay. Particulars: pH 7.5. As for the experimental part:
Assay buffer was 20 mM HEPES, pH 7.5, 10 mM MgCl2, 0.01% BSA, 1 mM DTT, 0.0005% Tween 20, and 2% DMSO. […] The assays were read using an EnVi

Assay [2] deals with T1, Tyrosine-protein kinase ITK/TSK. The assay is described as follows: Test compounds were solubilized in dimethyl sulfoxide (DMSO) to a stock concentration of 30 mM. Compounds were diluted in DMSO to create an 11-point half log dilution series with a top concentration of 600 μM. […] The compound plates were diluted 1 to 60 in the assay, resulting in a final assay compound concentration range of 10 μM to 100 pM and a final assay concentration of 1.7% DMSO. Test compounds and controls solubilized in 100% DMSO were added (250 nL) to a 384 well polypropylene plate (Matrical) using anon contact acoustic dispenser. Kinase assays were carried out at room temperature in a 15 μL reaction buffer containing 20 mM HEPES, pH 7.4, 10 mM magnesium chloride, 0.01% bovine serum albumin (BSA), 0.0005% Tween 20 and 1mM Dithiothreitol (DTT). Reaction mixtures contained 1 μM o. Particulars: 25 °C.

The molecule `C=CC(=O)N1C[C@H](Nc2ncnc3[nH]ccc23)CC[C@@H]1C` [PF-06651600] had a negative logarithm of the Ki (pKi) in assay [1] of 10.57. In addition, in assay [2], the pIC50 was 5.07.
